Data: patent US8703768B2, “Nitrogen containing heteroaryl compounds” (Hoffmann-La Roche Inc., priority 2010, dated 2014)
pIC50: −log10 of the molar value.

The chains behind the UniProt entries cited, without tags or fusion partners. A line that says so, or that is headed by a name, gives the form on record, which may keep a tag or linker.
UniProt Q9Y233, other isoform, or with tags, fused parts or gaps: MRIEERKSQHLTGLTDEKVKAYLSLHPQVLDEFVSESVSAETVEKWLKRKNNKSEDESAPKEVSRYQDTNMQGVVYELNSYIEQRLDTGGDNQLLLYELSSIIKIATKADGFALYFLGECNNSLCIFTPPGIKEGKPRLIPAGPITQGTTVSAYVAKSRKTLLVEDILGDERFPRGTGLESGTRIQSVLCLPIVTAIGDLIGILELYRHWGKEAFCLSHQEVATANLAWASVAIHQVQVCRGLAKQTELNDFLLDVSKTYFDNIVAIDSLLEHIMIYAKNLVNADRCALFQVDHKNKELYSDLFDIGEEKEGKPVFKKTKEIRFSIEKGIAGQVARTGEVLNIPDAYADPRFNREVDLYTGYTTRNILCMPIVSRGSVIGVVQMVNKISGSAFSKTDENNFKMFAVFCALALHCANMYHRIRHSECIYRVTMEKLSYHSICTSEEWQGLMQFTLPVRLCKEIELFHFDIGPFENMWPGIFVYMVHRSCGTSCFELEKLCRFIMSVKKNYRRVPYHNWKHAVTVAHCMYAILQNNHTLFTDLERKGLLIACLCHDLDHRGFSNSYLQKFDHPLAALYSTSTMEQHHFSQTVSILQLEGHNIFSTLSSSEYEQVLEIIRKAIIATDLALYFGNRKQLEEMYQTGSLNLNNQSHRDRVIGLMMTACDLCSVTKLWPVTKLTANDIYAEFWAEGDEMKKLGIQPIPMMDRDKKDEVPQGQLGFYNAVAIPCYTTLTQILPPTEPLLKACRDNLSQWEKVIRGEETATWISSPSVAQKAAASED

The compounds below were run against human PDE10A (Homo sapiens (Human), UniProt Q9Y233) (assay: human PDE10A full length Scintillation Proximity Assay (SPA)). Settings: 50 nM cGMP and 50 nM [3H]-cGMP, 20 minutes at room temperature; read-out: PDE10A inhibition IC50.
Assay type: biochemical
Protocol: The following test was carried out in order to determine the activity of the compounds of the present invention.
The human PDE10A full length assay was performed in 96-well micro titer plates. […] Non-specific activity was tested without the enzyme. The reaction was initiated by the addition of the substrate solution (cGMP and [^3H]-cGMP) and allowed to progress for 20 minutes at room temperature. The reaction was terminated by adding 25 μl of YSi-SPA scintillation beads (GE Healthcare, cat. # RPNQ0150) in 18 mM zinc sulphate solution (stop reagent). After 1 h under shaking, the plate was centrifuged one minute at 170 g to allow beads to settle. Afterwards, radioactive counts were measured on a Perkin Elmer TopCount Scintillation plate reader.

Compound	pIC50
O=C(Nc1cnccc1C(=O)N1CC2(COC2)C1)c1nc(C2CC2)ccc1Nc1cncnc1 [Example 88, 6-Cyclopropyl-3-(pyrimidin-5-ylamino)-pyridine-2-carboxylic acid [4-(2-oxa-6-aza-spiro[3.3]heptane-6-carbonyl)-pyridin-3-yl]-amide]	6.24
CNC(=O)c1nn(C)cc1NC(=O)c1nc(CC(C)C)cnc1Nc1cncnc1 [Example 104, 6-Isobutyl-N-(1-methyl-3-(methylcarbamoyl)-1H-pyrazol-4-yl)-3-(pyrimidin-5-ylamino)pyrazine-2-carboxamide]	7.95
CNC(=O)c1c(NC(=O)c2nc(C3CC3)cnc2Nc2cccnc2)cnn1C [Example 217, 6-Cyclopropyl-3-(pyridin-3-ylamino)-pyrazine-2-carboxylic acid (1-methyl-5-methylcarbamoyl-1H-pyrazol-4-yl)-amide]	7.95
CC(C)(O)CNC(=O)c1c(F)cccc1NC(=O)c1nc(C2CC2)cnc1Nc1cncnc1 [Example 310, 6-Cyclopropyl-3-(pyrimidin-5-ylamino)-pyrazine-2-carboxylic acid [3-fluoro-2-(2-hydroxy-2-methyl-propylcarbamoyl)-phenyl]-amide]	8.01

These reach a higher pIC50. Values come first.

pIC50	Compound
8.09	Cn1cc(NC(=O)c2nc(C3CC3)ccc2Nc2cncnc2)c(C(=O)NCCO)n1 [Example 39, 6-Cyclopropyl-3-(pyrimidin-5-ylamino)-pyridine-2-carboxylic acid [3-(2-hydroxy-ethylcarbamoyl)-1-methyl-1H-pyrazol-4-yl]-amide]
8.09	Cn1cc(NC(=O)c2nc(C3CC3)ccc2Nc2cncnc2)c(C(=O)N2CCCC2(C)C)n1 [Example 52, 6-Cyclopropyl-3-(pyrimidin-5-ylamino)-pyridine-2-carboxylic acid [3-(2,2-dimethyl-pyrrolidine-1-carbonyl)-1-methyl-1H-pyrazol-4-yl]-amide]
8.46	Cn1ncc(NC(=O)c2nc(C3CC3)cnc2Nc2cncnc2)c1C(=O)NC1CCOC1 (centres unmarked) [Example 141, 6-Cyclopropyl-3-(pyrimidin-5-ylamino)-pyrazine-2-carboxylic acid [1-methyl-5-(tetrahydro-furan-3-ylcarbamoyl)-1H-pyrazol-4-yl]-amide]
8.46	Cn1ncc(NC(=O)c2nc(C3CC3)cnc2Nc2cncnc2)c1C(=O)N[C@@H]1CCOC1 [Example 280, 6-Cyclopropyl-3-(pyrimidin-5-ylamino)-pyrazine-2-carboxylic acid {1-methyl-5-[(R)-(tetrahydro-furan-3-yl)carbamoyl]-1H-pyrazol-4-yl}-amide]
